Reference: patent US8952177B2 (Janssen Pharmaceutica NV, priority 2013, dated 2015)

Amino acid sequences for entries named in this document (tags omitted). A change or cut given only in a name is not applied to a line headed by its entry.
UniProt P20292: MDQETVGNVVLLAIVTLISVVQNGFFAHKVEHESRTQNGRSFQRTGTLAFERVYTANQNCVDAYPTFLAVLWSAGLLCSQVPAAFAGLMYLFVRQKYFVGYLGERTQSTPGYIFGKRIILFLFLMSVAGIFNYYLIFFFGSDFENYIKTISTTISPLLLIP

These compounds were tested against human FLAP (Homo sapiens (Human), UniProt P20292) (assay: FLAP binding assay (HTRF format)). Details: human FLAP-containing Sf-9 membranes, 25 nM HTRF ligand, 2 h; average of runs; read-out: FLAP Binding wild type HTRF Ki.

SMILES	Ki [nM]
Cc1ccc(COc2ccc3nc([C@@H]4CCCC[C@@H]4C(=O)O)n(Cc4ccc(N5CC(F)(F)C5)cc4F)c3c2)nc1 (stereo in doubt) [Example 167, (1S*,2R*)-2-{1-[4-(3,3-Difluoroazetidin-1-yl)-2-fluorobenzyl]-6-[(5-methylpyridin-2-yl)methoxy]-1H-benzimidazol-2-yl}cyclohexanecarboxylic acid]	2.2
Cn1cc(Cl)c(COc2ccc3nc([C@@H]4CCCC[C@@H]4C(=O)O)n(Cc4ccc(Br)cc4)c3c2)n1 (racemic) [Example 81, racemic cis-2-{1-(4-Bromobenzyl)-6-[(4-chloro-1-methyl-1H-pyrazol-3-yl)methoxy]-1H-benzimidazol-2-yl}cyclohexanecarboxylic acid]	2.9
CCC(CC)(Cc1nc2ccc(OCc3ccn(C)n3)cc2n1Cc1ccc(Br)cc1)C(=O)O [Example 42, 2-({1-(4-Bromobenzyl)-6-[(1-methyl-1H-pyrazol-3-yl)methoxy]-1H-benzimidazol-2-yl}methyl)-2-ethylbutanoic acid as the TFA salt]	32
Cc1cnc(COc2ccc3nc([C@@H]4CCCC[C@@H]4C(=O)O)n(Cc4ccc(N5CCC(F)CC5)cc4F)c3c2)c(F)c1 (stereo in doubt) [Example 173]	0.82
CCC(CC)(Cc1nc2ccc(OCc3ccn(C)n3)cc2n1Cc1ccc(N2CCC(C(F)(F)F)CC2)cc1F)C(=O)O [Example 189, 2-ethyl-2-((1-(2-fluoro-4-(4-(trifluoromethyl)piperidin-1-yl)benzyl)-6-((1-methyl-1H-pyrazol-3-yl)methoxy)-1H-benzo[d]imidazol-2-yl)methyl)butanoic acid]	29
Cc1ccc(Cn2c(C3CCCC[C@H]3C(=O)O)nc3c(F)cc(OCc4ccc(C)cn4)cc32)cc1 (mixture of isomers) [Example 68, racemic cis-2-{4-Fluoro-1-(4-methylbenzyl)-6-[(5-methylpyridin-2-yl)methoxy]-1H-benzimidazol-2-yl}cyclohexanecarboxylic acid as the TFA salt]	14
Cc1ccc(COc2ccc3nc([C@@H]4CCCC[C@@H]4C(=O)O)n(Cc4ccc(OC(F)(F)F)cc4Br)c3c2)nc1 (racemic) [Example 102, racemic cis-2-{1-[2-Bromo-4-(trifluoromethoxy)benzyl]-6-[(5-methylpyridin-2-yl)methoxy]-1H-benzimidazol-2-yl}cyclohexanecarboxylic acid as the HCl salt]	24
Cn1ccc(COc2cc(F)c3nc([C@H]4CCCC[C@H]4C(=O)O)n(Cc4ccc(C#N)cc4)c3c2)n1 (racemic) [Example 98, racemic cis-2-{1-(4-Cyanobenzyl)-4-fluoro-6-[(1-methyl-1H-pyrazol-3-yl)methoxy]-1H-benzimidazol-2-yl}cyclohexanecarboxylic acid as the HCl salt]	58
Cn1ccc(COc2ccc3nc(CC4(C(=O)O)CCCC4)n(Cc4ccc(Br)cc4)c3c2)n1 [Example 46, 1-({1-(4-Bromobenzyl)-6-[(1-methyl-1H-pyrazol-3-yl)methoxy]-1H-benzimidazol-2-yl}methyl)cyclopentanecarboxylic acid as the TFA salt]	110
Cc1ccc(COc2ccc3nc([C@@H]4CCCC[C@@H]4C(=O)O)n(Cc4ccc(N5CCCCC5)cc4)c3c2)nc1 (stereo in doubt) [Example 157, (1S*,2R*)-2-{6-[(5-Methylpyridin-2-yl)methoxy]-1-(4-piperidin-1-ylbenzyl)-1H-benzimidazol-2-yl}cyclohexanecarboxylic acid]	3
Cc1ccc(COc2cc(F)c3nc(C4CCCC[C@@H]4C(=O)O)n(Cc4ccc(OC(F)(F)F)cc4)c3c2)nc1 (mixture of isomers) [Example 67, racemic trans-2-{4-Fluoro-6-[(5-methylpyridin-2-yl)methoxy]-1-[4-(trifluoromethoxy)benzyl]-1H-benzimidazol-2-yl}cyclohexanecarboxylic acid as the TFA salt]	11
Cc1ccc(COc2ccc3nc(C4CCCC[C@H]4C(=O)O)n(Cc4ccc(N5CCC(F)(F)CC5)cc4)c3c2)nc1 (mixture of isomers) [Example 154, racemic cis-2-{1-[4-(4,4-Difluoropiperidin-1-yl)benzyl]-6-[(5-methylpyridin-2-yl)methoxy]-1H-benzimidazol-2-yl}cyclohexanecarboxylic acid]	3.7
Cc1cnc(COc2ccc3nc([C@H]4CCCC[C@H]4C(=O)O)n(Cc4ccc(N5CCC(F)CC5)cc4F)c3c2)c(F)c1 (stereo in doubt) [Example 174, (1R*,2S*)-2-{1-[2-Fluoro-4-(4-fluoropiperidin-1-yl)benzyl]-6-[(3-fluoro-5-methylpyridin-2-yl)methoxy]-1H-benzimidazol-2-yl}cyclohexanecarboxylic acid]	0.34
Cc1cnc(COc2ccc3nc([C@@H]4CCCC[C@@H]4C(=O)O)n(Cc4ccc(N5CCC(C)CC5)cc4F)c3c2)c(F)c1 (racemic) [Example 177, racemic cis-2-{1-[2-Fluoro-4-(4-methylpiperidin-1-yl)benzyl]-6-[(3-fluoro-5-methylpyridin-2-yl)methoxy]-1H-benzimidazol-2-yl}cyclohexanecarboxylic acid]	1.1
Cc1ccc(COc2ccc3nc([C@H]4[C@H](C(=O)O)C4(C)C)n(Cc4ccc(Br)cc4)c3c2)nc1 (stereo in doubt) [Example 116, (1S*,3S*)-3-{1-(4-Bromobenzyl)-6-[(5-methylpyridin-2-yl)methoxy]-1H-benzimidazol-2-yl}-2,2-dimethylcyclopropanecarboxylic acid]	~400
Cc1ccc(COc2cc(F)c3nc([C@@H]4CCCC[C@@H]4C(=O)O)n(Cc4ccc(Br)cc4)c3c2)nc1 (racemic) [Example 59, racemic cis-2-{1-(4-Bromobenzyl)-4-fluoro-6-[(5-methylpyridin-2-yl)methoxy]-1H-benzimidazol-2-yl}cyclohexanecarboxylic acid]	2.9
Cc1ccc(COc2cc(Cl)c3nc(C4CCCC[C@H]4C(=O)O)n(Cc4ccc(Br)cc4)c3c2)nc1 (mixture of isomers) [Example 75, racemic cis-2-{1-(4-Bromobenzyl)-4-chloro-6-[(5-methylpyridin-2-yl)methoxy]-1H-benzimidazol-2-yl}cyclohexanecarboxylic acid]	5.8
Cc1ccc(COc2cc(F)c3nc(C4CCCC[C@H]4C(=O)O)n(Cc4ccc(OC(F)(F)F)cc4)c3c2)nc1 (mixture of isomers) [Example 66, racemic cis-2-{4-Fluoro-6-[(5-methylpyridin-2-yl)methoxy]-1-[4-(trifluoromethoxy)benzyl]-1H-benzimidazol-2-yl}cyclohexanecarboxylic acid as the TFA salt]	7.7
Cc1cnc(COc2ccc3nc([C@@H]4CCCC[C@@H]4C(=O)O)n(Cc4c(F)cc(Br)cc4F)c3c2)c(F)c1 (racemic) [Example 123, racemic cis-2-{1-(4-Bromo-2,6-difluorobenzyl)-6-[(3-fluoro-5-methylpyridin-2-yl)methoxy]-1H-benzimidazol-2-yl}cyclohexanecarboxylic acid]	0.61

Structures can show the parent of a compound that is named as a salt.
